# Values of other authors, collected in patent US8110657B2, “Polypeptides and polynucleotides for enhancing immune reactivity to HER-2 protein” (priority 1999, dated 2012).
# Test system: metastatic, HER-2-overexpressing breast cancers
# Details: combined with cytotoxic chemotherapeutics; cited from earlier work
substance,measurement,value
Trastuzumab,survival,improve survival
